Measurements published in PubChem BioAssay AID743398 (Broad Institute, 2014).
The list shows a part of the results, in another mix than the full data. Active and inactive are the calls of the source. No stated cut-off is given here; in the data, active means activation above about 30% (passing the limit was not always enough); inconclusive means no clear call, values can overlap the other calls.

assay: activation of beta-catenin signaling reporter – cell-based, plate reader, single point, primary screen (AID 743398); details: Wnt/beta-catenin reporter cell assay, activator, at 9.35 µM, stronger effect = higher value;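 further: 0% = neutral control wells and 100% = positive control wells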

Row | SMILES | activation
1 | CC(=O)Nc1ccc([As](=O)(O)O)c(O)c1 | inactive: 8.41%
2 | CC(=O)Nc1ccc(Oc2c([N+](=O)[O-])cc([N+](=O)[O-])cc2[N+](=O)[O-])cc1 | inactive: -0.666%
3 | CCOc1ccc(C2=NCC(CBr)S2)cc1 (stereo unspecified) | inactive: 4.55%
4 | CCc1cc(O)c([N+](=O)[O-])c(C)c1[N+](=O)[O-] | inactive: 5.42%
5 | CC(C)(C)C(=O)NC(Sc1ccccc1)C(Cl)(Cl)Cl (stereo unspecified) | inactive: -1.05%
6 | Cc1ccc(OP(=O)(Nc2ccccn2)Oc2ccc(C)cc2)cc1 | inactive: -0.662%
7 | CC(=O)NC(SC(=S)N(CC(C)C)CC(C)C)C(Cl)(Cl)Cl (stereo unspecified) | inactive: 1.64%
8 | O=C(OC1CN2CCC1CC2)c1ccccc1 (stereo unspecified) | inactive: 3.92%
9 | CC(NC(=O)COC(=O)C(O)(c1ccccc1)c1ccccc1)c1ccccc1 (stereo unspecified) | inactive: -1.36%
10 | Cc1ccccc1OP(=O)(Nc1ccccn1)Oc1ccccc1C | inactive: -1.8%
11 | O=c1c2cc([N+](=O)[O-])ccc2[nH]c2c([N+](=O)[O-])cc([N+](=O)[O-])cc12 | inactive: -0.71%
12 | CN(C)C(=O)Oc1noc2ccccc12 | inactive: -0.409%
13 | O=C(NC1CCS(=O)(=O)C1)NP(=S)(Oc1ccccc1)Oc1ccccc1 (stereo unspecified) | inactive: -0.08%
14 | CCNC(=S)/N=C(\N)N[N+](=O)[O-] | inactive: -2.43%
15 | c1ccc(-c2nn[nH]n2)c(-c2nn[nH]n2)c1 | inactive: -1.7%
16 | Cc1ccc(NP(=O)(Oc2cccc(C)c2)Oc2cccc(C)c2)nc1 | inactive: -0.728%
17 | O=P1(N(CCCl)CCCl)OCCC2CCCCN21 (stereo unspecified) | inactive: 0.836%
18 | CN(C(=O)Cc1ccccc1)C1CC[C@@]2(CCCO2)C[C@@H]1N1CCCC1 (stereo partly specified) | inactive: 2.4%
19 | CCN(N=Nc1nonc1N)c1nonc1N | inactive: -3.88%

Row | SMILES | activation
20 | Nc1cccc2ccc([As](=O)(O)O)cc12 | inactive: 0.745%
21 | CC(=O)Nc1ccc([As](=O)(O)O)cc1 | inactive: -0.842%
22 | O=C(O)c1ccccc1[As](=O)(O)O | inactive: -0.738%
23 | CCCC1OP(N)(=O)OCC1CC (stereo unspecified) | inactive: -4.34%
24 | O=P(Nc1nc2ccc(Cl)cc2s1)(c1ccccc1)c1ccccc1 | inactive: 2.68%
25 | CN(C)P(=O)(N(C)C)n1c(Nc2ccccc2)nnc1-c1ccccc1 | inactive: -0.823%
26 | Cc1cc(SC(NC(=O)c2ccc(F)cc2)C(Cl)(Cl)Cl)ncn1 (stereo unspecified) | inactive: 6.35%
27 | CCOP(=O)(Nc1ccccc1)OCC | inactive: -2%
28 | CN(C(=O)Cc1ccc(Cl)c(Cl)c1)[C@H]1CCCC[C@@H]1N1CCCC1 | inactive: -1.85%
29 | Cc1ccc(NP(=O)(Oc2ccccc2F)Oc2ccccc2F)nc1 | inactive: 1.98%
30 | CCn1c(=O)n(C2CCN(CC3CCCCCCC3)C[C@H]2CO)c2ccccc21 (stereo partly specified) | inactive: -2.38%
31 | Nc1cc(N)c2nonc2c1[N+](=O)[O-] | inactive: -1.37%
32 | CC(C)CC(=O)NC(Sc1ccc(Cl)cc1)C(Cl)(Cl)Cl (stereo unspecified) | inactive: -6.01%
33 | O=C(NC(Sc1ccncn1)C(Cl)(Cl)Cl)c1ccccc1 (stereo unspecified) | inactive: -0.862%
34 | NC(=O)c1cc([N+](=O)[O-])cc([N+](=O)[O-])c1N | inactive: 0.125%
35 | CN(C(=O)Cc1ccc(Cl)c(Cl)c1)[C@H]1CCCC[C@H]1N1CCCC1 | inactive: 1.28%
36 | Cc1ccc(N/C(=N/P(=O)(N2CCOCC2)N2CCOCC2)N2CCOCC2)cc1 | inactive: -0.478%
37 | COc1ccccc1OP(=O)(Nc1ccc(C)cn1)Oc1ccccc1OC | inactive: -1.99%
38 | Cc1ccc(OP(=O)(Nc2nccs2)Oc2ccc(C)cc2)cc1 | inactive: 7.06%

Row | SMILES | activation
39 | Clc1ccc(Cl)c(NC2=NCC(CBr)S2)c1 (stereo unspecified) | active: 54.5%
40 | Nc1ccc([As](=O)(O)c2ccc(N)cc2)cc1 | inactive: 2.3%
41 | C[N+]1=C2C=CC=CC=C2SC12C([N+](=O)[O-])=CC([N+](=O)[O-])=C[C-]2[N+](=O)[O-] (stereo unspecified) | inactive: 4.69%
42 | CCN(/C(=N/P(=O)(N1CCOCC1)N1CCOCC1)N1CCOCC1)c1ccc(OC)cc1 | inactive: -0.159%
43 | CC(C)c1nc(Nc2ccccc2)n(P(=O)(N(C)C)N(C)C)n1 | inactive: -2.24%
44 | CC(C)=N/N=C(\N)N[N+](=O)[O-] | inactive: -2.22%
45 | c1cc(-c2nn[nH]n2)ccc1-c1nn[nH]n1 | inactive: -3.2%
46 | COc1ccc(C2=NCC(CBr)S2)cc1 (stereo unspecified) | inactive: -0.319%
47 | O=[N+]([O-])c1cccc2n[nH]nc12 | inactive: -0.981%
48 | Cc1ccc(NP(=O)(Oc2ccccc2)Oc2ccccc2)nc1 | inactive: -2.24%
49 | O=[N+]([O-])c1cc([N+](=O)[O-])c(CCNc2ccccc2)c([N+](=O)[O-])c1 | inactive: -1.24%
50 | CC(C)(C)C(=O)NC(Sc1ccncn1)C(Cl)(Cl)Cl (stereo unspecified) | inactive: 0.607%
51 | O=[N+]([O-])c1ncn(CCn2ncnc2[N+](=O)[O-])n1 | inactive: 16.2%
52 | COC(=O)C1(C)COP(=O)(Nc2ccccc2)OC1 (stereo unspecified) | inactive: 11%
53 | O=[N+]([O-])c1cccc(NC2=NCC(CBr)S2)c1 (stereo unspecified) | inactive: -3.62%
54 | O=C(O)CNc1ccc([As](=O)(O)O)cc1 | inactive: -3.09%
55 | O=P1(N(CCCl)CCCl)OCCCS1 (stereo unspecified) | inactive: -3.91%
56 | O=C(Nc1cc([As](=O)(O)O)ccc1O)c1ccccc1 | inactive: -1.08%
